Consider one compound from patent publication US11912693B2, “Compounds for modulating S1P1 activity and methods of using the same” (TREVENA, INC., priority 2017, dated 2024).

Protein sequences, listed by entry. Tags and fused reporters are not part of them.
UniProt P21453, whole entry: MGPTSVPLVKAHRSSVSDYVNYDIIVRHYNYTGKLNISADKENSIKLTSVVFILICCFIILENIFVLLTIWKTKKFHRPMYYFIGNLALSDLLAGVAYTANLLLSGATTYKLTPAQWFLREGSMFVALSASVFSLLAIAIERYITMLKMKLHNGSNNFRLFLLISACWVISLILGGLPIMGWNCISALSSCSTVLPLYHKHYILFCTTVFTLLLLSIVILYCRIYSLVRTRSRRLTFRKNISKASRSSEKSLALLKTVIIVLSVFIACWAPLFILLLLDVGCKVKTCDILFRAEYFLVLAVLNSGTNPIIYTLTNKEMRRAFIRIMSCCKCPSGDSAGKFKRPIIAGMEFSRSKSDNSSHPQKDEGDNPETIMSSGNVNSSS

The test system of test [1] is paclitaxel induced peripheral neuropathy. Kind of test: Reversal of allodynia induced by paclitaxel in mice (s.c. or p.o., von Frey frequency method). As to conditions: 3 mg/kg p.o., tested 60 min after dosing. Type of test: in vivo, c57bl/6 mice. How it is done:
Compounds were tested for efficacy in mouse models of chemotherapy induced peripheral neuropathy. […] For these studies […]/6 mice are habituated to the test environment and baseline measurements of pain sensitivity are assessed. To determine mechanical responses, the threshold for responses to punctate mechanical stimuli (mechanical hyperalgesia) was tested according to the frequency method. In brief, the plantar surface of the animal hindpaw was stimulated with a single von Frey monofilament (0.4 g) for approximately 1-2 seconds. If there was a withdrawal response, it was recorded as a positive response. A response was defined as a lifting or shaking of the paw upon stimulation. This was repeated ten times for each mouse. The final measurement for each mouse is the % non-response to stimulation for the ten trials. The % non-response to stimulation is converted to a % MPE. For paclitaxel induced peripheral neuropathy, a series of injections of PAC (6 mg/kg, i.p.) on days 1, 3, 5 and 7 is used to induce peripheral neuropathy. After approximately 14 days from the initiation of PAC injections, animals are re-assessed for mechanical sensitivity. […] After approximately 14 days from the initiation of PAC injections, animals are re-assessed for mechanical sensitivity. […]

Test [2] has as its target T1, human sphingosine-1-phosphate receptor 1 (S1P1) (Homo sapiens (Human), UniProt P21453). Kind of test: β-Arrestin2 recruitment assay (PathHunter), S1P1 CHO-K1 cells.
For test [3], the target named is T1, human sphingosine-1-phosphate receptor 1 (S1P1). Kind of test: Inhibition of cAMP production (HTRF cAMP HiRange), S1P1 CHO-K1 cells.
[4] abbreviates: efficacy (SPAN) normalized to fingolimod.

Molecules are shown by their SMILES.

In the case of `N#Cc1cc(-c2nc(-c3ccc4[nH]cnc4c3)no2)ccc1NCC(F)(F)F`, the “Screen @ 3 mg/kg po (% MPE)” value in test [1] was greater than 50 % MPE. In test [2] (setting [4]), the “hS1P1 B-arrestin2 SPAN” value was greater than 75. The “hS1P1 B-arrestin2 pEC50” value in test [2] (β-arrestin2 recruitment, S1P1 CHO-K1 cells) is greater than 5. Also, in test [3] (setting [4]), the “hS1P1 cAMP SPAN” value was greater than 75. Also, the “hS1P1 cAMP pEC50” value in test [3] (inhibition of cAMP production, S1P1 CHO-K1 cells) is greater than 6.5.
